Measured values as given in article PMC6071920 (MedChemComm, 2016).

The chains behind the UniProt entries cited, without tags or fusion partners.
UniProt P30536, whole entry, stated change not applied: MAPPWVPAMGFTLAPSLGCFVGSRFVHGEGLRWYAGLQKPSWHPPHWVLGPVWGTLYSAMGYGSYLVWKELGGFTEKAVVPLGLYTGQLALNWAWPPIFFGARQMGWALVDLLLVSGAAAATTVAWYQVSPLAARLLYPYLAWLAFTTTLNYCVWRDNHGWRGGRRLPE

Target: TSPO A147T (Homo sapiens, UniProt P30536)
Details: read-out: Kd at TSPO A147T; saturation binding, membranes from 293T cells over-expressing TSPO A147T

Q: How did the Kd turn out when CCC(C)N(C)C(=O)c1cc2ccccc2c(-c2ccccc2Cl)n1 (stereo not shown) [[^3H]-PK 11195] was run?
A: 13.4 ± 2.2 nM
